Results published in US10787432B2, “N-[(pyridyloxy)propanyl]benzamides” (Boehringer Ingelheim International GmbH, priority 2016, dated 2020).

By UniProt entry, the sequences of proteins in these tests, tags left out.
UniProt O43613, whole entry, species assumed: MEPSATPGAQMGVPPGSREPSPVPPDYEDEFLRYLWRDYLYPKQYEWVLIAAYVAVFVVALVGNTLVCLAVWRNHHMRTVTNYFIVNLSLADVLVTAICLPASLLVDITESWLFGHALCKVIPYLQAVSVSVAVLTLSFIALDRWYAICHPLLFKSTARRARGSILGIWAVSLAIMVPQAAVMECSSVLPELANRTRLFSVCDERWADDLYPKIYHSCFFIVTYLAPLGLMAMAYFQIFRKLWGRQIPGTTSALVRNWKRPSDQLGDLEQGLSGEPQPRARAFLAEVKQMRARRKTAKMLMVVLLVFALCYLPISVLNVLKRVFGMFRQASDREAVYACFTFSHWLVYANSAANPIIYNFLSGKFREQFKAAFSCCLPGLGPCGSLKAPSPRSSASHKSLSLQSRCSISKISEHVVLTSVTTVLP

Biological target: T1, OX1R (Homo sapiens, UniProt O43613)
T1 construct: host or cells: overexpressing cell lines of different origin (WO2013/187466); nothing is said for WO2016/034882
Assay: OX1R assay of WO2013/187466 (fluorescence measurement of intracellular Ca2+ changes, modified orexin A 300 pM)
Assay type: cell-based
Conditions: ratio of IC50 values reported in WO2013/187466

CCN(C(=O)c1cc(F)ccc1-c1ncccn1)[C@@H](C)Cn1nnc(-c2ccc(F)cc2)n1 [Example 70 in WO2013/187466]
OX2R IC50/OX1R IC50 as described in WO2013/187466: 411
